Assay results from publication PMC6225166, “Polyphenols from Acorn Leaves (Quercus liaotungensis) Protect Pancreatic Beta Cells and Their Inhibitory Activity against α-Glucosidase and Protein Tyrosine Phosphatase 1B” (Molecules : A Journal of Synthetic Chemistry and Natural …, 2018).

Target: T1, PTP1B (human, recombinant) (Homo sapiens, UniProt P18031)
T1 construct: purchased Sigma-Aldrich (St. Louis, MO, USA)
T1 sequence (P18031 1-435): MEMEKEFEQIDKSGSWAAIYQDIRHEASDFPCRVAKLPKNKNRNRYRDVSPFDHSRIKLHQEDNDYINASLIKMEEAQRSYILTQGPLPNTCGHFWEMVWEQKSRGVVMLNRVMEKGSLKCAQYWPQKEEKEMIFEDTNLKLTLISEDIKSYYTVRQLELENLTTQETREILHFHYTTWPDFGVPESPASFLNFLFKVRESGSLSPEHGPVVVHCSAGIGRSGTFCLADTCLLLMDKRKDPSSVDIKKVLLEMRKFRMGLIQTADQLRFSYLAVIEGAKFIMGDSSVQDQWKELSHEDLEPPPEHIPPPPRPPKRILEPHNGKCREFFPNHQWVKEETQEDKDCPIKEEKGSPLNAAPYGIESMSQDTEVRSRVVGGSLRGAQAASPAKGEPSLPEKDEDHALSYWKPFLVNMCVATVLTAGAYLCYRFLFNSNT
Assay: PTP1B inhibition assay (pNPP substrate)
Assay type: biochemical

kaempferol-3-O-rutinoside [Compound 3]
IC50: 24.9 ± 2.39 µM
